# Molecular target: MOP receptor (Homo sapiens, UniProt P35372)
# Amino acid sequences for entries named in this document (tags omitted).
# UniProt P35372, whole entry: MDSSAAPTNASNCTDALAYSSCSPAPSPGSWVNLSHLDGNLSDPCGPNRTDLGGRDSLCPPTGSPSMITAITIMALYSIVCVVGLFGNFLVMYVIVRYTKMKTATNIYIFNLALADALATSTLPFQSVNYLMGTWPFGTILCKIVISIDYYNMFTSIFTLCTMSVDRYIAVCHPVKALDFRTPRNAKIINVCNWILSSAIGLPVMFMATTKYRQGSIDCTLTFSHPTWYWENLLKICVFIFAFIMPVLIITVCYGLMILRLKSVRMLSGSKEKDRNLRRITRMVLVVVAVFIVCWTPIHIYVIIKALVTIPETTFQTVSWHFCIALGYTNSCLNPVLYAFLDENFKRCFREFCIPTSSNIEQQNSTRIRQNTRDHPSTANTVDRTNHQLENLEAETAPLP
# Experiment: Calcium mobilization in CHO cells expressing MOP receptor and Gαqi5
# Assay type: cell-based
# Settings: inactive = inactive up to 1 μM
# Description: Cell cultures were kept at 37° C. in 5% CO2 humidified air. In all cases experimental cultures were free from selection agents (hygromycin B, G418). When confluence was reached (3-4 days), cells were sub-cultured as required using trypsin EDTA and used for experimentation. Cells were seeded at a density of 50,000 cells/well into 96-well black, clear-bottom plates. After 24 hours incubation the cells were loaded with medium supplemented with 2.5 mM probenecid, 3 μM of the calcium sensitive fluorescent dye Fluo-4 AM and 0.01% pluronic acid, for 30 min at 37° C. Afterwards the loading solution was aspirated and 100 μl/well of assay buffer: Hank's Balanced Salt Solution (HBSS) supplemented with 20 mM HEPES, 2.5 mM probenecid and 500 μM Brilliant Black (Aldrich) was added. […] On-line additions were carried out in a volume of 50 μl/well. To facilitate drug diffusion into the wells in antagonist type experiments, the present studies were performed at 37° C. and three cycles of mixing (25 μl from each well moved up and down 3 times) were performed immediately after antagonist injection to the wells.
# Four mice were monitored in parallel. […] Animals locomotion was recorded for 60 min.
smiles,measurement,value
C[C@@H](NC(=O)[C@@H](N)Cc1ccc(O)cc1)C(=O)N[C@@H](Cc1ccccc1)C(=O)NCC(=O)N[C@@H](Cc1ccc(O)cc1)C(=O)N1CCC[C@H]1C(=O)N[C@@H](CO)C(N)=O [Dermorphin],EC50,0.513 nM

# Source: patent US9962447B2, “Supramolecular aggregates comprising maleimido cores” (UFPEPTIDES S.R.L., priority 2013, dated 2018)
